Drawing on patent US8901147B2, “Bi-heteroaryl compounds as Vps34 inhibitors” (Novartis AG, priority 2010, dated 2014), this text covers IC50 for two compounds.

Amino acid sequences for entries named in this document (tags omitted).
UniProt Q8NEB9, whole entry: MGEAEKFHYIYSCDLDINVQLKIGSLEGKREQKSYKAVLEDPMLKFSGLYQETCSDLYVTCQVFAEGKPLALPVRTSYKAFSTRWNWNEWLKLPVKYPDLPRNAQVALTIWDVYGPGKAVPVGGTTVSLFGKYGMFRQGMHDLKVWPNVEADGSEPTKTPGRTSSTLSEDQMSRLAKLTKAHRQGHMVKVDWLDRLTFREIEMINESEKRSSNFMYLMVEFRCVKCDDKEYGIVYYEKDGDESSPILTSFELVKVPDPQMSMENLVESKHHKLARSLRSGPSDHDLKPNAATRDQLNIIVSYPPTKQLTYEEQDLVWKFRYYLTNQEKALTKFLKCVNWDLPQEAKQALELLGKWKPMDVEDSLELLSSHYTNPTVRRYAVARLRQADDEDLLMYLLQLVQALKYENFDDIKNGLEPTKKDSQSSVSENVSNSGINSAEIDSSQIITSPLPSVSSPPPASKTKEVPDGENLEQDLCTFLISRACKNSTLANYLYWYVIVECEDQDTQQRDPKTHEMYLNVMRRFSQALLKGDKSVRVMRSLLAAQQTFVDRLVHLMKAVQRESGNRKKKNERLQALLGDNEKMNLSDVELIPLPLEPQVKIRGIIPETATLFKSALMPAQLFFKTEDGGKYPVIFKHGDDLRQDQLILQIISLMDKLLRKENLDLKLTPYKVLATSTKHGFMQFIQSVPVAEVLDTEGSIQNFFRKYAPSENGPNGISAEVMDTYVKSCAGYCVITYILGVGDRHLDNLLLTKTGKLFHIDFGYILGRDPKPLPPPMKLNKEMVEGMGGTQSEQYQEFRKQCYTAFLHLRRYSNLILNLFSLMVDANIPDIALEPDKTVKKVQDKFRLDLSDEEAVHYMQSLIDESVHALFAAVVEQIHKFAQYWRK

The target in this experiment is recombinant human Vps34 (Homo sapiens, UniProt Q8NEB9). Kind of experiment: Vps34 KinaseGlo assay. It counts as biochemical. Conditions: read-out: Vps34 IC50; KinaseGlo luminescence ATP detection; PI/OG substrate; 1 μM ATP; room temperature; 8 concentrations, n=2. A general note: Kinase-Glo measures the ATP left after a reaction by luminescence.

Broadly, the IC50 is the concentration at which inhibition is half-maximal. As to `Nc1ncc(-c2ccnc(NC3CCNCC3)n2)c(CC2CC2)n1`, the IC50 amounted to 6.62 µM.

Take `CC(O)CNc1ncc(-c2ccnc(Nc3ccncc3)n2)c(CC2CC2)n1` (centres unmarked) [Example 10j, 1-(4′-(cyclopropylmethyl)-2-(pyridin-4-ylamino)-4,5′-bipyrimidin-2′-ylamino)propan-2-ol]: the IC50 is 0.0805 µM.
